Antibody variant affinities, Ab-14 light chain, assay B

Target: peptide PDVDLGDISGINAS, taken from heptad repeat 2 (HR2) of SARS-CoV-2 spike.

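The parent was found by panning a naive human phage display library on the peptide. Designed CDR sequences, proposed from the first random library and measured here. Several design methods are mixed in this list. AlphaSeq pools MATa yeast showing the antibodies with MATalpha yeast showing the peptide. Binding brings cells together so that they mate, and sequencing counts the barcode pairs among the diploids. Read counts were normalised to the haploid input and turned into Kd by a linear fit to BCL2-family pairs of known affinity, for each replicate. The assay was run in six technical replicates.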

Parent scFv Ab-14: VH joined to VL by a (GGGGS)3 linker. Changes lie in the light chain CDRs alone.
VH: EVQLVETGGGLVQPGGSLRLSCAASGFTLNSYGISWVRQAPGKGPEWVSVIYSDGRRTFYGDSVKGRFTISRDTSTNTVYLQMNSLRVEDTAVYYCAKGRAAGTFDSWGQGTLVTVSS
VL: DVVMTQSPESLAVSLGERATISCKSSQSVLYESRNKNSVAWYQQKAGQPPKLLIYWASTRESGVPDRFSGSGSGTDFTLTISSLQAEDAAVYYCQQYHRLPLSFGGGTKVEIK

Variants are written as CDR1, CDR2 and CDR3 of the light chain (limits as in the source). Parent: KSSQSVLYESRNKNSVA, WASTRES, QQYHRLPLS.
Kd is apparent (estimated from mating counts) and averaged on the log scale over replicates with a signal. Smaller is tighter.
An entry "nd" has no value in the source: the pair was not observed among the diploids in any replicate. This suggests poor binding but is not conclusive.
The authors' rule: three or more of the six replicates give a measured affinity, fewer mean a poor binder.

Kd,seen in,signal with controls,CDR-L1,CDR-L2,CDR-L3
960 pM,6 of 6,1 of 18,KLYTSVMLESRNVNSVA,SASQREE,QQYHRLPLS
nd,0 of 6,1 of 18,KSSQSGLYESRNLYSVA,WASTRCS,FQYHRLPLS
3.9 nM,6 of 6,0 of 18,KLLQNVGTEGRNRNNVA,HMDMRED,QQYWRLPLS
690 pM,6 of 6,0 of 18,KLQQSDLYESRNKNSVA,DASTRES,QQYHRLPLS
5.4 nM,6 of 6,0 of 18,TISQITSLFTQNINNVA,EVSTRLN,QQYDRLPLA
210 pM,6 of 6,0 of 18,KLEWSVLYESRNKNSVA,NASTRES,QQYHRLPLS
4.2 nM,6 of 6,2 of 18,KSSQSVLGEQRNCNSVA,DASTRES,QQYHRLPLS
2.3 nM,6 of 6,0 of 18,HLSDTVMQGSYFRNSVA,QESTRAD,QQYHRLPLS
21 nM,6 of 6,0 of 18,KMTEQLLNGEREPSSIA,AGVIGSD,QQYHRLPLI
36 nM,4 of 6,0 of 18,KLDLENGHEDKKGQNIA,EASTAGD,QSYWRLPLS
nd,0 of 6,0 of 18,ILYDSVLTLGRNKNSVA,DNSTRES,QQYDRLPLS
6.9 nM,6 of 6,3 of 18,LVDQSQLYEQRMKNSVA,SASLRES,QQYHRLPLS
8.8 nM,6 of 6,1 of 18,MINQLYNMGSFAINSVA,QASERCN,QQYDRLPLI
5.1 nM,6 of 6,2 of 18,KLGYPSYGEVNGQHNIA,EMDQLTF,QQYSHLPLS
7.4 nM,6 of 6,4 of 18,KLSQSVNVTGKNKNSVA,ELSFREK,QQYERLPLS
820 pM,6 of 6,1 of 18,KLEFLDLYESRNKNSVA,EASTRES,QQYHRLPLS
310 nM,3 of 6,1 of 18,KLSMVTGHLSMAKNNVA,EMVTREN,QQYNRLPLS
1.1 nM,6 of 6,0 of 18,SLYENYANGGQHTNAVA,DANQMMR,QHYNRLPLA
3.7 nM,6 of 6,1 of 18,HLGGLMTWESKARNSVA,QQNTRAE,QQYHRLPLS
nd,0 of 6,0 of 18,KSLQSVLYESRNKNSVA,HASTRED,SQYHRLPLS
170 nM,1 of 6,0 of 18,KSSQLYLIESRNKNSVA,WASTRES,QQYHRLPLS
7.3 nM,6 of 6,1 of 18,KLSGIMRVETKKSNSIA,EMTTRGE,QQYDRLPLS
3.6 nM,6 of 6,1 of 18,DFALDQDSMGDAKNSIA,DRNTKAH,QQYSRLPLV
24 nM,6 of 6,0 of 18,TLYGLSVSMSKNKNSVA,EMTTREK,QQYDRLPLI
nd,0 of 6,0 of 18,HMSMLTMMGMRQRNSVA,QMTMREN,QQYDRLPLV
7.9 nM,6 of 6,0 of 18,HISANNWMQGSQWDAVA,QGEIANN,QQYARLPLS
990 nM,3 of 6,1 of 18,KSSHSVGYESRNKNSVA,WASTREW,QQYHVLPLS
4.5 nM,6 of 6,0 of 18,KLYDMAAVTMQNIRNVA,DNSTRES,QQYHRLPLS
1.9 nM,6 of 6,2 of 18,KLSQSDLYESRNKNSVA,HASTRLS,QQYHRLPLS
2.2 nM,6 of 6,2 of 18,KITQIFFPYGNSWHSVA,NANTLAA,QQYYMLPLM
3.5 nM,6 of 6,0 of 18,KVSQSVIYESRNKNSVA,WASTRES,QQYHRLPLS
3.7 nM,6 of 6,0 of 18,MAYGGDMLESVARNSVA,NAETRAD,QDYHRLPLS
1.3 nM,6 of 6,0 of 18,KVSQSMLYESRNKNNVA,EASQREQ,QSYHRLPLS
1.5 nM,6 of 6,0 of 18,KLSMSMLYESRNKNSVA,NASTRMS,QQYHRLPLS
610 pM,6 of 6,1 of 18,KVSESQDYESRNKNSVA,NASTREE,QQYHRLPLS
850 pM,6 of 6,0 of 18,HSSPSVLYESRNDNSVA,NASTRES,QQYHRLPLS
2.9 nM,6 of 6,0 of 18,KLQQSMLYESRNDNSVA,HASMRES,QQYHRLPLF
950 pM,6 of 6,0 of 18,KYSQAFLYESRNKNSVA,DANTRES,QQYHRLPLS
5.0 nM,6 of 6,1 of 18,SLYDATGMESRNKNPIA,DVSTRPS,QQYHRLPLS
nd,0 of 6,0 of 18,HMSMLTLQGLRHRNSVA,QMTTRVN,QQYDRLPLT
440 pM,6 of 6,0 of 18,KLSQSWEYGSRNANSVA,NASQREE,QQYHRLPLS
54 nM,6 of 6,1 of 18,KLLQEVTGRMQNRNSVA,HNSTRED,QQYDRLPLI
nd,0 of 6,0 of 18,KSSHSVLYEQRNKNSVA,WASTRES,NQYHRLPLS
1.7 nM,6 of 6,0 of 18,KLSQSVLYEEMNKNNVA,WASTRES,QQYHRLPLS
13 nM,6 of 6,2 of 18,KVSEFMKGLMMKTDSIA,DNVTRNN,QQYDRLPLS
nd,0 of 6,0 of 18,KSSQSFLYESRNKNSVA,GASTRTS,QQYHRLTLW

Picked from the list: the 7 lowest averages where every replicate gave a value.

CDR-L1,CDR-L2,CDR-L3,Kd,seen in,signal with controls
KLEWSVLYESRNKNSVA,NASTRES,QQYHRLPLS,210 pM,6 of 6,0 of 18
KLSQSWEYGSRNANSVA,NASQREE,QQYHRLPLS,440 pM,6 of 6,0 of 18
KVSESQDYESRNKNSVA,NASTREE,QQYHRLPLS,610 pM,6 of 6,1 of 18
KLQQSDLYESRNKNSVA,DASTRES,QQYHRLPLS,690 pM,6 of 6,0 of 18
KLEFLDLYESRNKNSVA,EASTRES,QQYHRLPLS,820 pM,6 of 6,1 of 18
HSSPSVLYESRNDNSVA,NASTRES,QQYHRLPLS,850 pM,6 of 6,0 of 18
KYSQAFLYESRNKNSVA,DANTRES,QQYHRLPLS,950 pM,6 of 6,0 of 18

The range of this assay differs from that of the first round, and the authors advise against merging the two.
Of ten entries with the parent sequence, four were seen in most replicates (averages 2.2 nM to 240 nM), three in one and three in none, so single entries are noisy.
Three control strains display no target. For all light chain designs, 4% of the pairings with them gave a signal, with a median of 430 nM and one signal in twenty below 38 nM, so weak values seen in few replicates may be background. The control count says in how many pairings with the empty strains this scFv gave a signal.

The measurements come from Li et al. 2023 (doi:10.1038/s41467-023-39022-2) through the FLAb antibody collection.